Target: NMDA receptor
Format: binding
Conditions: not given

First: CC[C@H](C)[C@H](NC(=O)[C@H](CC(C)C)NC(=O)[C@H](C)NC(=O)[C@H](CCC(N)=O)NC(=O)[C@H](CC(N)=O)NC(=O)[C@H](C)NC(=O)[C@H](CCC(N)=O)NC(=O)[C@H](CC(C)C)NC(=O)[C@H](CC(C(=O)O)C(=O)O)NC(=O)[C@H](CC(C(=O)O)C(=O)O)NC(=O)[C@H](CCC(=O)O)NC(=O)CN)C(=O)N[C@@H](CCCNC(=N)N)C(=O)N[C@@H](C)C(N)=O [(A^7,10,14)1-14]
Second: CC[C@H](C)[C@H](NC(=O)[C@H](CC(C)C)NC(=O)[C@H](C)NC(=O)[C@H](CCC(N)=O)NC(=O)[C@H](CC(N)=O)NC(=O)[C@H](C)NC(=O)[C@H](CCC(N)=O)NC(=O)[C@H](CC(C)C)NC(=O)[C@H](CC(C(=O)O)C(=O)O)NC(=O)[C@H](CC(C(=O)O)C(=O)O)NC(=O)[C@H](CCC(=O)O)NC(=O)CN)C(=O)N[C@@H](CCCNC(=N)N)C(=O)N[C@@H](C)C(=O)N[C@@H](CCCCN)C(N)=O [(A^7,10,14)1-15]
The IC50 of the first is 6.8-fold higher: 232 nM for the first, 34 nM for the second. The second is the more potent here.

First: CC[C@H](C)[C@H](NC(=O)[C@H](CC(C)C)NC(=O)[C@H](C)NC(=O)[C@H](CCC(N)=O)NC(=O)[C@H](CC(N)=O)NC(=O)[C@H](C)NC(=O)[C@H](CCC(N)=O)NC(=O)[C@H](CC(C)C)NC(=O)[C@H](CC(C(=O)O)C(=O)O)NC(=O)[C@H](CC(C(=O)O)C(=O)O)NC(=O)[C@H](CCC(=O)O)NC(=O)CN)C(=O)N[C@@H](CCCNC(=N)N)C(=O)N[C@@H](C)C(=O)N[C@@H](CCCCN)C(=O)N[C@@H](CO)C(N)=O [(A^7,10,14)1-16]
Second: CC[C@H](C)[C@H](NC(=O)[C@H](CC(C)C)NC(=O)[C@H](C)NC(=O)[C@H](CCC(N)=O)NC(=O)[C@H](CC(N)=O)NC(=O)[C@H](C)NC(=O)[C@H](CCC(N)=O)NC(=O)[C@H](CC(C)C)NC(=O)[C@H](CC(C(=O)O)C(=O)O)NC(=O)[C@H](CC(C(=O)O)C(=O)O)NC(=O)[C@H](CCC(=O)O)NC(=O)CN)C(=O)N[C@@H](CCCNC(=N)N)C(=O)N[C@@H](C)C(=O)N[C@@H](CCCCN)C(=O)N[C@@H](CO)C(=O)N[C@@H](CC(N)=O)C(N)=O [A^7,10,14]
The IC50 of the first is 2.4-fold lower: 37 nM for the first, 88 nM for the second.

Compared with CC[C@H](C)[C@H](NC(=O)[C@H](CC(C)C)NC(=O)[C@H](CC(C(=O)O)C(=O)O)NC(=O)[C@H](CCC(N)=O)NC(=O)[C@H](CC(N)=O)NC(=O)[C@H](CC(C(=O)O)C(=O)O)NC(=O)[C@H](CCC(N)=O)NC(=O)[C@H](CC(C)C)NC(=O)[C@H](CC(C(=O)O)C(=O)O)NC(=O)[C@H](C)NC(=O)[C@H](CCC(=O)O)NC(=O)CN)C(=O)N[C@@H](CCCNC(=N)N)C(=O)N[C@@H](CC(C(=O)O)C(=O)O)C(=O)N[C@@H](CCCCN)C(=O)N[C@@H](CO)C(=O)N[C@@H](CC(N)=O)C(N)=O [A^3], CC[C@H](C)[C@H](NC(=O)[C@H](CC(C)C)NC(=O)[C@H](CC(C(=O)O)C(=O)O)NC(=O)[C@H](CCC(N)=O)NC(=O)[C@H](CC(N)=O)NC(=O)[C@H](CC(C(=O)O)C(=O)O)NC(=O)[C@H](CCC(N)=O)NC(=O)[C@H](CC(C)C)NC(=O)[C@H](CC(C(=O)O)C(=O)O)NC(=O)[C@H](CO)NC(=O)[C@H](CCC(=O)O)NC(=O)CN)C(=O)N[C@@H](CCCNC(=N)N)C(=O)N[C@@H](CC(C(=O)O)C(=O)O)C(=O)N[C@@H](CCCCN)C(=O)N[C@@H](CO)C(=O)N[C@@H](CC(N)=O)C(N)=O [S^3] is 2.5-fold lower in IC50: 9100 nM for the first, 3600 nM for the second. The second is the more potent here.

In the case of CC[C@H](C)[C@H](NC(=O)[C@H](CC(C)C)NC(=O)[C@H](CCC(=O)O)NC(=O)[C@H](CCC(N)=O)NC(=O)[C@H](CC(N)=O)NC(=O)[C@H](CCC(=O)O)NC(=O)[C@H](CCC(N)=O)NC(=O)[C@H](CC(C)C)NC(=O)[C@H](CC(C(=O)O)C(=O)O)NC(=O)[C@H](CC(C(=O)O)C(=O)O)NC(=O)[C@H](CCC(=O)O)NC(=O)CN)C(=O)N[C@@H](CCCNC(=N)N)C(=O)N[C@@H](CCC(=O)O)C(=O)N[C@@H](CCCCN)C(=O)N[C@@H](CO)C(=O)N[C@@H](CC(N)=O)C(N)=O [E^7,10,4], the IC50 is reported as at least 20000 nM.

System: not given
Conditions: 37° C.; 50 μg/ml

In the case of CC[C@H](C)[C@H](NC(=O)[C@H](CC(C)C)NC(=O)[C@H](CC(C(=O)O)C(=O)O)NC(=O)[C@H](CCC(N)=O)NC(=O)[C@H](CC(N)=O)NC(=O)[C@H](CC(C(=O)O)C(=O)O)NC(=O)[C@H](CCC(N)=O)NC(=O)[C@H](CC(C)C)NC(=O)[C@H](CC(C(=O)O)C(=O)O)NC(=O)[C@H](C)NC(=O)[C@H](CCC(=O)O)NC(=O)CN)C(=O)N[C@@H](CCCNC(=N)N)C(=O)N[C@@H](CC(C(=O)O)C(=O)O)C(=O)N[C@@H](CCCCN)C(=O)N[C@@H](CO)C(=O)N[C@@H](CC(N)=O)C(N)=O [A^3], the “stability in biological media” value is reported as “stable in all biological media for up to 4 hours”.

— US6277825A (priority 1999, dated 2001)
